The assay concerns the target Cathepsin D (Homo sapiens, UniProt P07339). Put plainly: Assay 3: cathepsin D inhibition activity (non-cellular assay, chromogenic substrate). The following applies: cathepsin D from human placental tissue, pH 3.7, 37°C.

Amino acid sequences for entries named in this document (tags omitted). Residues count along the entry.
UniProt P07339, 65-412 limits assumed: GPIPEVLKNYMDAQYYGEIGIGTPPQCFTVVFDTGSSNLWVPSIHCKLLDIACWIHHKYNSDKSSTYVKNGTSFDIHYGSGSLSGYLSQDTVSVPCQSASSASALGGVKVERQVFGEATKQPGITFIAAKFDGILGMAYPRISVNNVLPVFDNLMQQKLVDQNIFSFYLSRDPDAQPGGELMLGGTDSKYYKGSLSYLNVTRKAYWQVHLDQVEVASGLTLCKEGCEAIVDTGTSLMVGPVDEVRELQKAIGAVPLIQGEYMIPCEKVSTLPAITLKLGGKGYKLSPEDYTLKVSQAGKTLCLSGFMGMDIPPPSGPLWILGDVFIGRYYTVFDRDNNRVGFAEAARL

Molecule `CCC[C@H](NC(=O)C[C@H](O)[C@H](CC(C)C)NC(=O)[C@H](CCC)NC(=O)[C@H](Cc1cccc2ccccc12)NC(C)=O)C(=O)N[C@@H](Cc1cccc2ccccc12)C(N)=O` displayed a Ki of 0.54 nM.

The molecule `CC[C@H](NC(=O)C[C@H](O)[C@H](CC(C)C)NC(=O)[C@@H](NC(=O)[C@H](Cc1cccc2ccccc12)NC(C)=O)C(C)C)C(=O)N[C@@H](Cc1cccc2ccccc12)C(N)=O` registered an inhibitory constant (Ki) of 0.53 nM.

For orientation: Ki means the dissociation constant of the complex between target and ligand, obtained from inhibition or displacement.

Source of the values: patent EP0652009A1, “Identification and use of protease inhibitors” (ELI LILLY AND COMPANY, priority 1993, dated 1995).
